By UniProt entry, the sequences of proteins in these tests, tags left out.
UniProt P20309, whole entry, looked up: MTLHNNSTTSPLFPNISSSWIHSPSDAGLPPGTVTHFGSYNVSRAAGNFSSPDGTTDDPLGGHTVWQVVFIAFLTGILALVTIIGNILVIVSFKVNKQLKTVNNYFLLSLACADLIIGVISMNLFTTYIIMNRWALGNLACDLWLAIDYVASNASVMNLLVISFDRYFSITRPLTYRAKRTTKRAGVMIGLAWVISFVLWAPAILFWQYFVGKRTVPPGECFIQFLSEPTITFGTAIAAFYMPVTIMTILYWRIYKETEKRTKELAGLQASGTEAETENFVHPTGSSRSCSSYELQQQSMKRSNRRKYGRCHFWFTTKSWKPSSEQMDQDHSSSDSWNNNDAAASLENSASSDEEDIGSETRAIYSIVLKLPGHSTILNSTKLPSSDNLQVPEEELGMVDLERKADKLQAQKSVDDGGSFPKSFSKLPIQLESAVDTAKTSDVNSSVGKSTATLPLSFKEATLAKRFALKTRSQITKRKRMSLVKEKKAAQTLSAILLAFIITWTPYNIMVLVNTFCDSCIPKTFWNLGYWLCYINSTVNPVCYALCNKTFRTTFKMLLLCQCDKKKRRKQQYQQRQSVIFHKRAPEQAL

According to US7994211B2, “Bicyclo[2.2.1]hept-7-ylamine derivatives and their uses” (Argenta Discovery Limited, priority 2005, dated 2011):

Target: human muscarinic receptors (M3) (Homo sapiens, UniProt P20309)
Experiment: Muscarinic receptor radioligand binding assay ([3H]-NMS)

SMILES	Ki [nM]
C[N+]1(C2C3CCC2C(OC(=O)C(O)(c2cccs2)c2cccs2)C3)CCC(c2ccccc2)CC1 (stereo not shown)	> 10
C[N+](C)(CCC1CCOCC1)C1C2CCC1C(OC(=O)C(O)(c1cccs1)c1cccs1)C2 (stereo not shown)	1 to 10
C[N+](C)(CCCCc1ccccc1)C1C2CCC1C(OC(=O)C(O)(c1cccs1)c1cccs1)C2 (stereo not shown)	< 1
C[N+](C)(C)C1C2CCC1C(OC(=O)C(O)(c1cccs1)c1cccs1)C2 (stereo not shown)	< 1
C[N+](C)(CCc1ccccc1)C1C2CCC1C(OC(=O)C(O)(c1cccs1)c1cccs1)C2 (stereo not shown)	< 1
C[N+](C)(Cc1ccccc1)C1C2CCC1C(OC(=O)C(O)(c1cccs1)c1cccs1)C2 (stereo not shown)	> 10
C[N+](C)(CCOCc1ccccc1)C1C2CCC1C(OC(=O)C(O)(c1cccs1)c1cccs1)C2 (stereo not shown)	< 1
C[N+]1(C2C3CCC2C(OC(=O)C(O)(c2ccccc2)c2ccccc2)C3)CCC(Cc2ccccc2)CC1 (stereo not shown)	> 10
C[N+](C)(CC(=O)NCc1ccccc1)C1C2CCC1C(OC(=O)C(O)(c1cccs1)c1cccs1)C2 (stereo not shown)	< 1
C[N+](C)(C1Cc2ccccc2C1)C1C2CCC1C(OC(=O)C(O)(c1cccs1)c1cccs1)C2 (stereo not shown)	< 1
C[N+](C)(CCCOc1ccccc1)C1C2CCC1C(OC(=O)C(O)(c1cccs1)c1cccs1)C2 (racemic)	< 1
C[N+](C)(CCCc1ccccc1)C1C2CCC1C(OC(=O)C(O)(c1cccs1)c1cccs1)C2 (racemic)	< 1
C[N+](C)(CCc1ccc2c(c1)CCO2)C1C2CCC1C(OC(=O)C(O)(c1cccs1)c1cccs1)C2 (stereo not shown)	< 1
C[N+](C)(CCCc1ccccc1)C1C2CCC1C(OC(=O)C(O)(c1cccs1)c1cccs1)C2 (stereo not shown)	< 1
C[N+](C)(CCCOc1ccccc1)C1C2CCC1C(OC(=O)C1(O)c3ccccc3Oc3ccccc31)C2 (stereo not shown)	< 1
C[N+](C)(CCCOc1ccccc1)C1C2CCC1C(OC(=O)C(O)(c1ccccc1)c1ccccc1)C2 (stereo not shown)	< 1
